Experimental data taken from US20050227989A1, “Polycyclic thiazoles as potassium ion channel modulators” (ICAgen, Inc., priority 2004, published 2005).

Target: hSK2 (Homo sapiens, UniProt Q9H2S1)
Experiment: 86Rb+ efflux assay for compound activity towards hSK channels
Type: cell-based
Conditions: read-out: hSK2 Inhibitory Activity; 86Rb+ efflux stimulated with calcium ionophore; drug 0.01 to 30 μM in EBSS

O=[N+]([O-])c1cnc(Nc2nc(-c3ccccn3)c([N+](=O)[O-])s2)c([N+](=O)[O-])c1
IC50: 1 to 30 µM
